# Laboratory results: US8088775B2, “Pharmaceutical composition for treating hair loss” (priority 2004, dated 2012)
# Where a name gives a salt, the structure may show the parent alone.
# System: hair loss
# Details: Example 4; tablets 10 mg once a day; 15 people
# Excerpt: Clinical Experiment to Study Effects for the Prevention of Hair Loss, and for Hair Toning and Hair Growth (2)
# The effect for the prevention of hair loss is investigated by administering the tablets thus manufactured to 20 healthy adult males who are older than 20 years old and selected to be specimens (including 5 males in the placaebo control group) once a day.
structure (smiles),measurement,value
"O=C(O)COCCN1CCN(C(c2ccccc2)c2ccc(Cl)cc2)CC1 (stereo not shown) [composition of the present invention, 2-[2-[4-[(4-chlorophenyl)phenylmethyl]-1-piperazinyl]ethoxy]-acetic acid dihydrochloride]",Complaints about side effects such as sexual function disorder,no one among 15 people
